The assay has as its system C2C12 myoblasts. The assay is described as follows: ALP staining for transdifferentiation of C2C12 myoblasts to osteoblasts. It is filed as cell-based, mouse. To be noted: positive control, 1 μg/ml of BMP-2. From the text:
We screened for chimeric zinc finger proteins that induce transdifferentiation of C2C12 myoblasts to osteoblasts in the absence of BMP-2. We transiently transfected a nucleic acid library encoding chimeric zinc finger proteins into C2C12 cells and screened for cells that undergo transdifferentiation in the absence of BMP-2. Seven days after transfection, the transformed cells were stained for alkaline phosphatase (ALP), a marker for osteoblasts (Katagiri, T. et al., (1994) J. Cell. Biol. 127:1755).
For these experiments, the mouse myoblast cell line, C2C12, was maintained in Dulbecco's Modified Eagle's Medium (DMEM) with 4.5 g/L glucose, 10% FBS, and antibiotics, at 37° C., in a humidified atmosphere containing 95% air and 5% CO2. Cells were seeded at 1.0·10^4 cells per 96-well culture plates. The cells were transfected with 50 ng of library nucleic acid using LIPOFECTAMINE PLUS™ (Invitrogen) according to the manufacturer's protocol. Twenty-four hours after transfection, the growth medium was replaced with DMEM containing 2% FBS, and the cells were cultured for an additional six days.
To examine the differentiation of C2C12 cells to osteoblasts, ALP staining was performed as described in Katagiri, T. et al., (1994) J. Cell. Biol. 127:1755.

We go through 1 molecule from patent US7514257B2, “Zinc finger transcription factor differentiation proteins” (ToolGen, Inc., priority 2001, dated 2009).

B1: BMP-2: bone morphogenic protein-2, positive control (protein, UniProt P12643 283-396, looked up)
Bone morphogenetic protein 2: QAKHKQRKRLKSSCKRHPLYVDFSDVGWNDWIVAPPGYHAFYCHGECPFPLADHLNSTNHAIVQTLVNSVNSKIPKACCVPTELSAISMLYLDENEKVVLKNYQDMVVEGCGCR
For B1, the “cells strongly stained for ALP” value was approximately 100%.
